The values that follow come from patent US12329823B2 (The Scripps Research Institute, priority 2021, dated 2025).

By UniProt entry, the sequences of proteins in these tests, tags left out. Residues count along the entry.
UniProt F8V479, 24-463: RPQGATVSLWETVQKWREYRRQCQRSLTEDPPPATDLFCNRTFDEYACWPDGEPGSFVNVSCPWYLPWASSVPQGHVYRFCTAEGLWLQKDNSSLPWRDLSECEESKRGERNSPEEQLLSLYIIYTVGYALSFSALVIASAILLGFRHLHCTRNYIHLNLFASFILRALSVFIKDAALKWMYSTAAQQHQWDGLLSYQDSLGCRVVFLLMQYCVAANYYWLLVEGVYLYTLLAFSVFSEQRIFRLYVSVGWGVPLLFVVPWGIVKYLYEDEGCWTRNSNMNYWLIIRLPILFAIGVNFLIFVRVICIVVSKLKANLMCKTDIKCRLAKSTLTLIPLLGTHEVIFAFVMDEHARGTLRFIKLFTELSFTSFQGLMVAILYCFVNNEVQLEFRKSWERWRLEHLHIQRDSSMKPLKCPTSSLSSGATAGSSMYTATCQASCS

One data set deals with T1, mouse GLP1R (Mus musculus, UniProt O35659).
T1 sequence (O35659 22-463): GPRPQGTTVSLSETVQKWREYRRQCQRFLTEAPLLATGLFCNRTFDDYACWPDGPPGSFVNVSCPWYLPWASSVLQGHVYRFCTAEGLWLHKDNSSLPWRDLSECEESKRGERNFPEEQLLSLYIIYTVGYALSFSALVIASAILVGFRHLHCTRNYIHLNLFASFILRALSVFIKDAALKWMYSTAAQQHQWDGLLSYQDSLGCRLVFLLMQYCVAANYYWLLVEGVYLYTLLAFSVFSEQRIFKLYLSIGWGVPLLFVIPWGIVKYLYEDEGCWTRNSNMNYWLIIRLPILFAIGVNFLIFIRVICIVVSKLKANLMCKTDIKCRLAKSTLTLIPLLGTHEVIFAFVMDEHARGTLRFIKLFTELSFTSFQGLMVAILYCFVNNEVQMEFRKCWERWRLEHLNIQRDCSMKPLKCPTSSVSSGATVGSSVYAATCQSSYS
The data set is described as follows: In vitro potency, mouse GLP1R activation (receptor-mediated cAMP synthesis). The class given is cell-based. Particulars: read-out: In Vitro Potency GLP1R EC50, Mouse; Table 12. On the procedure: (§1) GLP-1R-CRE or HEK293-GIPR-CRE cells were seeded in 384-well plates at a density of 5000 cells per well and cultured for 18 h in DMEM with 10% FBS at 37° C. and 5% CO2. Cells were treated with peptides in a dose dependent manner for 24 h, and receptor activation was reported by luminescence intensities, using One-Glo (Promega, WI) luciferase reagent following manufacturer's instruction. The EC50 of each peptide was determined using GraphPad Prism 6 software (GraphPad, San Diego, CA). Results are depicted in FIGS. 6A-6B, FIGS. 7A-7B, FIGS. 8A-8B, FIGS. 9A-9B, and Tables 7-12. Measurements of peptide conjugate potency were expressed as half maximal effective concentration (EC50) values.

A further data set deals with cynomolgous monkey GLP1R (Macaca fascicularis, UniProt F8V479). Nature of the data set: In vitro potency, cynomolgous monkey GLP1R activation (receptor-mediated cAMP synthesis). In kind it is cell-based. The following applies: read-out: In Vitro Potency GLP1R EC50, Cyno; Table 12. On the procedure: as §1
The target in another data set is T2, dog GLP1R (Canis lupus familiaris, UniProt A0A8I3NUR9).
T2 sequence (A0A8I3NUR9 1-464): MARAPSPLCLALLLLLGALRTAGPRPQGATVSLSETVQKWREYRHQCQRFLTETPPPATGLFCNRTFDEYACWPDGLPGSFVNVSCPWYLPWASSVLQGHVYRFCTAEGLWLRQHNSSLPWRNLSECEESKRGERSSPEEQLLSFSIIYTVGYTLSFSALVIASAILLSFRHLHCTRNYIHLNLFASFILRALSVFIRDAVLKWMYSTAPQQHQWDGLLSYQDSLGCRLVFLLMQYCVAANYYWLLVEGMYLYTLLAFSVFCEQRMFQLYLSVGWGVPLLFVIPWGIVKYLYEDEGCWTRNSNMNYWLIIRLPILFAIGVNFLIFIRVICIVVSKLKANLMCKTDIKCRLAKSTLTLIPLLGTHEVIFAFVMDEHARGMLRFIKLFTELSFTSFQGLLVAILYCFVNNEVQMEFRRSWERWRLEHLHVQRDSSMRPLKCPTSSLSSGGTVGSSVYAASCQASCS
Nature of the data set: In vitro potency, dog GLP1R activation (receptor-mediated cAMP synthesis). Particulars: read-out: In Vitro Potency GLP1R EC50, Dog; Table 12. The class given is cell-based. Here is the method: as §1

For data set [1] the following is noted: semaglutide; cited from earlier work.
The target in another data set is T3, human GIPR (Homo sapiens, UniProt P48546).
T3 construct: expressed in transfected cells; host or cells: HEK293 (CRE-HEK293, HEK293-GIPR-CRE)
T3 sequence (P48546 22-466): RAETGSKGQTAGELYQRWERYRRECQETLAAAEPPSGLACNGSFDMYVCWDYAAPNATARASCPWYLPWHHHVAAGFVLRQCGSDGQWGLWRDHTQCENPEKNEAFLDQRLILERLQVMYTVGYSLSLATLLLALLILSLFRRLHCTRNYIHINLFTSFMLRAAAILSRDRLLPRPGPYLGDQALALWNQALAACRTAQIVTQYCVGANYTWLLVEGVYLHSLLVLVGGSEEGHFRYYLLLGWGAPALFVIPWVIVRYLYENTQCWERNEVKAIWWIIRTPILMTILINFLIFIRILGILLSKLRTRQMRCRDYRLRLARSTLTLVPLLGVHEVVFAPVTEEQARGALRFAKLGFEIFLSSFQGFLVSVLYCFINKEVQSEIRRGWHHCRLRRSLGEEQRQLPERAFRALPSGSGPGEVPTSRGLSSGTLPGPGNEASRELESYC
The data set is described as follows: In vitro receptor activation reporter assay (CRE-Luc, HEK293-GIPR-CRE cells; receptor-mediated cAMP synthesis). In kind it is cell-based. The following applies: read-out: In Vitro Potency GIPR EC50, No Serum, Table 11. For orientation: A reporter such as luciferase makes a cellular process visible.

The target in another data set is T4, dog GIPR (Canis lupus familiaris, UniProt A0A8I3MPG1).
T4 sequence (A0A8I3MPG1 24-449): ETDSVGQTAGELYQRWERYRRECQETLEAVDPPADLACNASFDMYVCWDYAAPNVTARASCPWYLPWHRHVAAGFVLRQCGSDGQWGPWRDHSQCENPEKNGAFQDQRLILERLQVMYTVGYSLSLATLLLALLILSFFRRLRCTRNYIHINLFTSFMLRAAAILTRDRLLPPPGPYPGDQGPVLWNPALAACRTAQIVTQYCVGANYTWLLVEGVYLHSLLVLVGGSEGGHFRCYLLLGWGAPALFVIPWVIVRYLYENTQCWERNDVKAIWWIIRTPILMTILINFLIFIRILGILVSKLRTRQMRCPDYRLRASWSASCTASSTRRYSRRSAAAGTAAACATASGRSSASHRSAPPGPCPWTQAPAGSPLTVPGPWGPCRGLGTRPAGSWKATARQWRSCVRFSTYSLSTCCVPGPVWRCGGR
Nature of the data set: In vitro potency, dog GIPR activation (receptor-mediated cAMP synthesis). The class given is cell-based. Particulars: read-out: In Vitro Potency GIPR EC50, Dog; Table 12. Here is the method: as §1

With Semaglutide [reference compound], the EC50 (commonly the midpoint of the concentration-response curve) was 0.1 nM on mouse GLP1R, 0.13 nM at cynomolgous monkey GLP1R and 0.67 nM on dog GLP1R. In data set [1], the rodent half-life is recorded as ~8 h.
Turning to Tirzepatide [reference compound], the EC50 on human GIPR was determined as 0.006 nM; at dog GIPR, 0.1 nM.
